## Measured properties of organic chemicals

Data: OPERA 2.9 data sets, kmansouri/OPERA on GitHub.

The melting point is given in degrees Celsius.
Boiling points are in °C, nominally at 760 mmHg.
The octanol-water partition coefficient is given as log10; larger values mean a more lipophilic compound.
Solubility in water is on a log10 molar scale (set defined at 25 °C).
Vapor pressures (log10 mmHg) refer to near room temperature, 15 to 30 °C; higher is more volatile.
The Henry's law constant is on a log10 scale in atm·m3/mol (set defined at 25 °C); higher favours air over water.
fu is the fraction unbound in human plasma, from 0 to 1.
Clint is human hepatic intrinsic clearance in µL/min per million cells; 0 means that no clearance was seen.
Cells with "n/a" have no entry in this list.

SMILES | name | mp (°C) | BP (°C) | log Kow | water solubility (log10 mol/L) | vapor pressure (log10 mmHg) | log H (log10 atm·m3/mol) | plasma fu | hepatic Clint (µL/min/10^6 cells)
CC(C)COP(=S)(OCC(C)C)SCC(C)C(=O)O (centres undefined) | n/a | n/a | n/a | 3.9 | -4.624 | -6.161 | n/a | n/a | n/a
O=C(CBr)Nc1ccc(Cl)cc1C(=O)c1ccccc1F | 2-Bromo-4'-chloro-2'-(2-fluorobenzoyl)acetanilide | 132.5 | n/a | n/a | -5.574 | n/a | n/a | n/a | n/a
OCC(O)CCl (centres undefined) | 3-Chloro-1,2-propanediol | n/a | n/a | 0.502 | n/a | n/a | -7.215 | n/a | n/a
C[C@]12C[C@@H](O)[C@H]3[C@@H](CCC4=CC(=O)CC[C@@H]43)[C@@H]1CCC2=O | 11alpha-Hydroxy-estr-4-ene-3,17-dione | 216.4 | n/a | 0.967 | -2.561 | n/a | n/a | n/a | n/a
C=CC(=O)NCNC(=O)C=C | N,N'-Methylenebisacrylamide | 180 | n/a | n/a | n/a | n/a | n/a | 1 | n/a
CCOC1=CC2=CC[C@@H]3[C@H](CC[C@]4(C)C(=O)CC[C@@H]34)[C@@]2(C)CC1 | 3-Ethoxy-androsta-3,5-dien-17-one | n/a | n/a | 6.4 | -7.14 | -8.303 | n/a | n/a | n/a
COC(=O)[N-]S(=O)(=O)c1ccc(N)cc1.[Na+] | Asulam-sodium | n/a | n/a | n/a | 0.58 | -8.426 | n/a | n/a | n/a
CCCCC(CC)COC(=O)c1ccc(C(=O)OCC(CC)CCCC)c(C(=O)OCC(CC)CCCC)c1 (centres undefined) | Tris(2-ethylhexyl) trimellitate | -46 | n/a | 5.94 | n/a | -9.477 | n/a | n/a | n/a
CC(=NNC(=O)Nc1cc(F)cc(F)c1)c1ncccc1C(=O)O | Diflufenzopyr | n/a | n/a | 1.09 | n/a | -4.886 | -9.161 | n/a | n/a
C=CCOC(=O)c1ccccc1C(=O)OCC=C | Diallyl phthalate | n/a | n/a | n/a | n/a | -3.797 | n/a | n/a | 8.216
COP(=O)(OC)SCn1c(=O)oc2cc(Cl)cnc21 | Azamethiphos | n/a | n/a | n/a | -2.47 | n/a | -10.84 | 0.553 | 429
CCCCCCC(C)(C)c1cc(O)c2c(c1)OC(C)(C)[C@@H]1CCC(=O)C[C@@H]21 | Nabilone | n/a | n/a | 6.8 | -5.878 | n/a | n/a | n/a | n/a
Clc1ccc(Cl)c(-c2c(Cl)c(Cl)c(Cl)c(Cl)c2Cl)c1 | 2,2',3,4,5,5',6-Heptachlorobiphenyl | 147 | n/a | n/a | n/a | -5.265 | n/a | n/a | n/a
C1CCC2NCCC2C1 (centres undefined) | Octahydro-1H-indole | 143 | 186 | n/a | n/a | n/a | n/a | n/a | n/a
C[N+](C)(C)CC1COCO1.[I-] (centres undefined) | (1,3-Dioxolan-4-yl)-N,N,N-trimethylmethanaminium iodide | 159 | n/a | -3.03 | n/a | n/a | n/a | n/a | n/a
CC(C)(C)C(=O)O[C@H]1CC[C@]2(C)[C@H]3CC[C@]4(C)C(=O)[C@H]5C[C@H]5[C@H]4[C@@H]3C=C[C@]2(O)C1 | n/a | n/a | n/a | 3.9 | -4.825 | n/a | n/a | n/a | n/a
Cc1nc(N(C)C)nc(OC(=O)N(C)C)c1C | Pirimicarb | n/a | n/a | n/a | n/a | n/a | n/a | 0.1626 | 22.53
O=C(O)CC(CP1(=O)Oc2ccccc2-c2ccccc21)C(=O)O (centres undefined) | n/a | n/a | n/a | 1.8 | -2.814 | -3.648 | n/a | n/a | n/a
CNC(=O)c1cc(Cl)cc(C)c1NC(=O)c1cc(Br)nn1-c1ncccc1Cl | Chlorantraniliprole | 209 | n/a | 2.76 | -5.68 | n/a | n/a | n/a | n/a
CCOc1nc(NC)nc(NC(=O)NS(=O)(=O)c2ccccc2C(=O)OC)n1 | Ethametsulfuron-methyl | n/a | 316.8 | n/a | n/a | -8.312 | -10.92 | n/a | n/a
C#CC(C)(C)NC(=O)c1cc(Cl)cc(Cl)c1 | Propyzamide | n/a | n/a | n/a | n/a | n/a | n/a | 0.06826 | 5.4
CCCCP(CCCC)CCCC | Tributylphosphine | n/a | n/a | 3.05 | n/a | -1.707 | n/a | n/a | n/a
COC(=O)[C@H]1CN(C)[C@@H]2Cc3c[nH]c4cccc(c34)[C@@]2(OC)C1 | n/a | 180.6 | n/a | n/a | -2.626 | -9.639 | n/a | n/a | n/a
Brc1ccc(Br)c(-c2cc(Br)ccc2Br)c1 | 2,2',5,5'-Tetrabromobiphenyl | 143 | n/a | n/a | -8.06 | n/a | n/a | n/a | n/a
CCCCCCOP(=O)(OCCCCCC)OCCCCCC | Phosphoric acid, trihexyl ester | n/a | n/a | 7.04 | -6.147 | -5.252 | n/a | n/a | n/a
CCCCCCCCCC[N+](C)(C)CCCCCCCCCC.CCCCCCCCCC[N+](C)(C)CCCCCCCCCC.O=C([O-])CCCCC(=O)[O-] | 1-Decanaminium, N-decyl-N,N-dimethyl-, hexanedioate (2:1) | n/a | n/a | 3.6 | n/a | -9.274 | n/a | n/a | n/a
COP1(=S)OCc2ccccc2O1 (centres undefined) | Dioxabenzofos | n/a | n/a | n/a | n/a | -2.654 | -4.807 | n/a | n/a
C#C[C@@]1(OC(C)=O)CC[C@@H]2[C@H]3CC=C4C=C(OCC)CC[C@H]4[C@@H]3CC[C@]21C | n/a | 181.2 | n/a | n/a | -8.826 | -7.771 | n/a | n/a | n/a
CC(CC(=O)OOC(C)(C)C)CC(C)(C)C (centres undefined) | n/a | n/a | n/a | 4.78 | -4.21 | -1.648 | n/a | n/a | n/a

Excerpt, the opening 5 entries:

| SMILES | name | mp (°C) | BP (°C) | log Kow | water solubility (log10 mol/L) | vapor pressure (log10 mmHg) | log H (log10 atm·m3/mol) | plasma fu | hepatic Clint (µL/min/10^6 cells) |
|---|---|---|---|---|---|---|---|---|---|
| CC(C)COP(=S)(OCC(C)C)SCC(C)C(=O)O (centres undefined) | n/a | n/a | n/a | 3.9 | -4.624 | -6.161 | n/a | n/a | n/a |
| O=C(CBr)Nc1ccc(Cl)cc1C(=O)c1ccccc1F | 2-Bromo-4'-chloro-2'-(2-fluorobenzoyl)acetanilide | 132.5 | n/a | n/a | -5.574 | n/a | n/a | n/a | n/a |
| OCC(O)CCl (centres undefined) | 3-Chloro-1,2-propanediol | n/a | n/a | 0.502 | n/a | n/a | -7.215 | n/a | n/a |
| C[C@]12C[C@@H](O)[C@H]3[C@@H](CCC4=CC(=O)CC[C@@H]43)[C@@H]1CCC2=O | 11alpha-Hydroxy-estr-4-ene-3,17-dione | 216.4 | n/a | 0.967 | -2.561 | n/a | n/a | n/a | n/a |
| C=CC(=O)NCNC(=O)C=C | N,N'-Methylenebisacrylamide | 180 | n/a | n/a | n/a | n/a | n/a | 1 | n/a |

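The numbers are reported measurements, compiled and curated for the OPERA QSAR suite. The files give a single number for a compound and property, which may rest on several reports. How each value was measured is not recorded, so precision varies. Where a salt, mixture or single isomer is drawn, the source does not say that exactly this form was tested. Some upstream entries may be estimates or bounds without being marked so.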